DT40 TDP1 CPT: DT40-hTDP1 cell growth loss with CPT | chicken DT40 Tdp1-/-;hTDP1 cells + 20 nM CPT, ATP luminescence, 48 h | Potency, µM (series often up to 46.2 µM), hits mostly inhibitors | actives 12% (n = 420,000) | AID 686979; further: nearly all actives have a fitted effect of over 55% in size
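Cell growth measured by CellTiter-Glo luminescence after a minimum 48 h, 37 C compound exposure with 20 nM CPT in Tdp1-knockout DT40 cells stably expressing hTDP1, seeded 400/well; qHTS titration format.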
miR-21 reporter: miR-21 reporter, rising signal. HeLa miR-21 FLuc reporter, luciferase, 48 h. Potency, µM (highest dose often 38.3 µM). 340,000 tested, under 10 active. AID 2288; active = well fitted rising curve with a large enough effect; inconclusive = small, poorly fitted or top-dose-only effect; inactive = no such curve, though single readings can be large or run the other way;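 further: miR-21 action dims this reporter so a rising signal means less miR-21 action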
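Luminescence from a firefly luciferase reporter carrying a miR-21 binding site downstream, stably expressed under a CMV promoter in HeLa cells that make miR-21 endogenously, reports miRNA modulation after 48 h compound exposure up to approximately 40uM final.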
TDP1 cell noCPT: qHTS for Inhibitors of human tyrosyl-DNA phosphodiesterase 1 (TDP1): qHTS in cells in absence of CPT | DT40 Tdp1-/- hTDP1 cells, no CPT, ATP luminescence, 48 h | Potency, µM (doses to about 46.2 µM), actives largely listed as inhibitors | actives 15% (n = 420,000); further: nearly all actives have a fitted effect of over 55% in size
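Seeded 400 DT40-hTDP1 cells/well (vehicle DMSO, no 20 nM CPT); pinned compounds; ≥48 hr at 37 °C; CellTiter-Glo luminescence as viability measure.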
TDP1 block: blocks human tyrosyl-DNA phosphodiesterase 1. Q9NUW8. recombinant TDP1, AlphaScreen DNA substrate cleavage. Potency, µM (titrated, usually from 130 µM), hits mostly inhibitors. actives 0.28% (n = 350,000); further: nearly all actives have a fitted effect of over 40% in size
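Enzyme-compound mixtures sat 15 min at room temperature, followed by a 5 min reaction with 15 nM final substrate and 10 min with AlphaScreen beads. Recombinant human Tdp1 was used at 1 nM final.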
uPA generation: blocks generation of uPA at the cell surface | actives 0.31% (n = 330,000) | cell surface uPA generation assay, qHTS | AID 540303 | Potency, µM (highest dose often 38.3 µM), hits mostly inhibitors; active means well fitted inhibition curve with a large enough effect; inconclusive means small, poorly fitted or top-dose-only effect; inactive means no such curve, though single readings can be large or run the other way; tested in mouse RAW 264.7 cells; further: nearly all actives have a fitted effect of over 55% in size
Numbers stand for hits; - = inactive; ? = inconclusive; . = no result given; [ ] = dose if it differs, or a comment. Rows were chosen to be rich in hits. Some 16% of all compounds tested hit in one or more screens of this group. Unless noted, the call rests on the fitted dose curve; in most records, active means well fitted curve in the direction sought with a large enough effect; inconclusive means small, poorly fitted or top-dose-only effect, or another doubt; inactive means no such curve, though single readings can be large; an effect the other way counts as inactive or inconclusive.

SMILES	DT40 TDP1 CPT	miR-21 reporter	TDP1 cell noCPT	TDP1 block	uPA generation
CCC(C)n1c(=O)c2sccc2n2c(CCCC(=O)N3CCC(C(N)=O)CC3)nnc12 (stereo not given)	-	-	-	-	-
CCCn1c(=O)c2sccc2n2c(CCCC(=O)N3CCN(c4cccc(Cl)c4)CC3)nnc12	?	-	12µM	-	.
CC(=O)c1ccc(S(=O)(=O)N(C)CC(=O)Nc2cccc(S(=O)(=O)N3CCCC3)c2)cc1	?	.	?	.	-
N#Cc1cccc(C2CC(OCCF)=CC(=O)O2)c1 (stereo not given)	-	.	-	.	.
CC1=CCC2C(=O)N(c3ccc(C(=O)N4CCCCCC4)cc3)C(=O)C2C1 (stereo not given)	?	-	?	-	-
CCCn1c(=O)c2sccc2n2c(CCCC(=O)N3CCN(c4cccc(C)c4C)CC3)nnc12	21µM	-	18µM	-	.
CNc1nc(Nc2ccc(C(C)=O)cc2)nc(OC(C(F)(F)F)C(F)(F)F)n1	?	-	23µM	-	-
Cc1ccc(C(=O)/C=C/c2ccc(Br)cc2)o1	?	-	23µM	-	-
Cc1ccc(C(=O)/C=C/c2ccccc2)o1	?	-	15µM	-	-
Cc1ccc(C(=O)/C=C/c2ccc3c(c2)OCO3)o1	18µM	-	21µM	-	?
O=C(/C=C/c1ccc2c(c1)OCO2)c1cccs1	3.3µM	.	6µM	-	.
Cc1ccc(C(=O)Cc2ccccc2)o1	-	.	-	.	-
CCNc1ccccc(C(=O)/C=C/c2ccc3c(c2)OCO3)c1=O	8.2µM	-	16µM	-	-
COc1ccccc1CNC(=O)c1c(O)nc2cc(C)ccn2c1=O	-	-	-	-	.
O=C1C(=C(I)I)c2ccccc2-c2ccccc21	2.6µM	.	4.6µM	.	-
O=C(O)c1cccc2c1C(=O)c1ccccc1-2	-	-	-	-	-
CC(C)N=C(Nc1ccc(Cl)cc1)c1cccnc1	-	-	-	-	-
COc1ccc(N(CC(=O)NCc2ccco2)S(=O)(=O)c2ccccc2)cc1	-	-	-	-	-
O=S(=O)(CC(CN1CCCCC1)N1CCCCC1)c1ccccc1 (stereo not given)	7.3µM	?	4.6µM	-	8.9µM
COc1ccc(NS(=O)(=O)c2ccc3c(c2)n(C)c(=O)n3C)cc1	-	-	-	-	-
Cc1cc2c(cc1S(=O)(=O)NCc1ccccc1)n(C)c(=O)c(=O)n2C	-	-	-	.	-
COc1ccc(S(=O)(=O)Nc2cc3c(cc2NCc2ccccc2)n(C)c(=O)n3C)cc1	8.2µM	-	?	-	.
CCCS(=O)(=O)Nc1cc2c(cc1NCc1ccccc1)n(C)c(=O)n2C	9.2µM	-	?	-	.
O=C(O)CC(NC(=O)OCc1ccccc1)c1ccc(Br)cc1 (stereo not given)	-	-	-	-	-
Cc1cccc(C)c1NC(=O)C(c1ccc([N+](=O)[O-])cc1)N(C)C(=O)c1ccccn1 (stereo not given)	6.5µM	-	3.3µM	-	-
SMILES	DT40 TDP1 CPT	miR-21 reporter	TDP1 cell noCPT	TDP1 block	uPA generation
Cc1cccc(Cn2nc(C)c(NC(=O)c3ccc(F)cc3)c2C)c1	-	-	?	-	-
CCn1ccc(C(=O)Nc2c(C)nn(Cc3c(F)c(F)c(F)c(F)c3F)c2C)n1	?	-	16µM	-	-
CC(C)c1cc(C(N)=O)c(NC(=O)c2cccc(COc3ccc(Cl)cc3)c2)s1	26µM	-	?	-	-
Cc1nn(Cc2c(F)c(F)c(F)c(F)c2F)c(C)c1NC(=O)c1cccc(COc2ccc(Cl)cc2)c1	10µM	-	7.3µM	-	.
CCn1cc(Cl)c(C(=O)Nc2c(C)nn(Cc3c(F)c(F)c(F)c(F)c3F)c2C)n1	15µM	-	?	-	-
CCn1cc([N+](=O)[O-])c(C(=O)Nc2c(C)nn(Cc3c(F)c(F)c(F)c(F)c3F)c2C)n1	?	-	-	-	.
COc1cc2c(cc1OC)C(NC(=O)C(F)(F)F)CNC2=O (stereo not given)	?	-	?	-	-
C=CCn1c(CCc2ccccc2)nnc1SCC(N)=O	-	-	-	-	-
Cc1ccsc1CNCC(O)c1ccccc1 (stereo not given)	-	-	-	.	-
O=C(Nc1ccc(S(=O)(=O)N2CCCCCC2)cc1)c1ccco1	-	-	-	-	-
COc1ccccc1C(=O)Nc1nc(-c2ccc(S(=O)(=O)N3CCOCC3)cc2)cs1	2.6µM	?	2.3µM	-	-
O=C(Nc1nc(-c2ccc(S(=O)(=O)N3CCCC3)cc2)cs1)c1ccco1	23µM	-	18µM	-	-
Cc1ccc(S(=O)(=O)N2CCOCC2)cc1C(=O)Nc1nc(-c2ccccn2)cs1	5.2µM	.	4.1µM	-	-
COc1ccc(C(=O)Nc2nc(-c3ccccn3)cs2)cc1S(=O)(=O)N1CCOCC1	13µM	.	5.2µM	-	-
CCC(=O)NS(=O)(=O)c1ccc(N=NN2CCCCC2)cc1	-	-	-	-	-
Cc1cc(NC(=O)C(C)SCC(=O)N(C)Cc2ccccc2F)no1 (stereo not given)	-	.	-	-	-
O=C(Nc1ccnn1C1CCN(C(=O)c2ccc(Cl)cc2)CC1)C1CC1	-	-	-	-	-
O=C(Nc1nc(-c2ccccn2)cs1)c1cccc(S(=O)(=O)N2CCOCC2)c1	4.1µM	.	2.9µM	-	10µM
CCOC(=O)c1c(-c2ccccc2Cl)csc1NC(=O)c1cc(S(=O)(=O)N2CCOCC2)ccc1C	10µM	-	7.3µM	-	-
O=C(COc1cccc(Cl)c1)Nc1nc(-c2ccc(S(=O)(=O)N3CCOCC3)cc2)cs1	21µM	-	12µM	-	-
CCOC(=O)CSc1nnc2cc(C)c3ccccc3n12	-	-	-	-	-
CCN(CC)S(=O)(=O)c1ccc(C(=O)NC(=S)N2CCCCC2C)cc1 (stereo not given)	?	.	16µM	.	.
CN(C(=O)c1cccc(NC(=O)Cc2ccc(NC(=O)C3CCN(C(=O)C4CCCCC4)CC3)cc2)c1)C1CC1	-	.	?	.	-
Cc1ccc(NC(=O)CCNS(=O)(=O)c2ccccc2F)cc1S(=O)(=O)N1CCOCC1	-	.	?	-	-
CCOC(=O)/C=C1\SCC(=O)N1CC(=O)NCCc1ccc(F)cc1	-	-	-	-	-
C[C@@H]1C=CC(=O)O[C@@H]1c1ccc(Cl)cc1	7.3µM	?	7.3µM	.	?
CC(C)CO/N=C1/C[C@@H](O)[C@@H](O)[C@@H]2[C@@H]3C(=O)N(C4CCCCC4)C(=O)[C@H]3CC[C@H]12	.	.	.	-[21 µM]	.
CN(Cc1ccccc1)c1nc2c(c(=O)n(C)c(=O)n2C)n1CCCc1ccccc1	23µM	-	16µM	-	-
COC(=O)CSc1nc2c(c(=O)n(C)c(=O)n2C)n1CCCc1ccccc1	-	-	?	-	-
